Assay results taken from PubChem BioAssay AID687022 (Broad Institute, 2013).

Chains of the proteins cited; added tags and fusions are not shown.
UniProt Q9HCT0, whole entry: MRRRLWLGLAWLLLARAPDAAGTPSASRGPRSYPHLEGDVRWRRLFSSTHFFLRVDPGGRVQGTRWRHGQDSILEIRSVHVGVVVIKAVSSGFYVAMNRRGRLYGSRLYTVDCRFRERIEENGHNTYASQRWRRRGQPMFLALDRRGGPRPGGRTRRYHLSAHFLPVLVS

Biological target: Fibroblast growth factor 22 (Homo sapiens) (UniProt Q9HCT0)
Assay: binders of human FGF22 protein, dose response, FGF22 synaptogenesis inhibitor project, biophysical, thermal shift, cherry-pick (AID 687022)
Conditions: recombinant FGF22 thermal shift, SYPRO orange melting

| Compound | AC50 [µM] |
| --- | --- |
| CN(Cc1cccnc1)C(=O)COc1ccc(Cl)c(Cl)c1.O=[N+]([O-])c1cc([N+](=O)[O-])c(O)c([N+](=O)[O-])c1 | 7.16 |
| CCN(CC)CCCNc1ccccc1[N+](=O)[O-].O=[N+]([O-])c1cc([N+](=O)[O-])c(O)c([N+](=O)[O-])c1 | 9.02 |
